Literature values as cited in the CATMoS acute toxicity set (Mansouri et al. 2021).
Values joined by “and” are separate entries in the source; they are usually repeats but may differ in a detail not shown here. Equal values may be shown once.

Assay: rat acute oral toxicity
Details: in vivo

CN1CCC2=C(C1)c1ccccc1Cc1ccccc12
LD50: 554 mg/kg

CCCC(=O)OCC
LD50: 13000 mg/kg

COc1ccc(C(=O)NCc2cccnc2)cc1C(=O)NCc1cccnc1
LD50: 3000 mg/kg

CC(C)[C@@H]1CC[C@@H](C)C[C@H]1O
LD50: 3300 mg/kg

CC(=O)OC/C=C(\C)CCC=C(C)C
LD50: 6330 mg/kg

O=c1[nH]cc(F)c(=O)[nH]1
LD50: 230 mg/kg

Oc1c(Br)cc(Cl)cc1Cc1cc(Cl)cc(Br)c1O
LD50: 3700 mg/kg

CC(C)C(=O)c1c(C(C)C)nn2ccccc12
LD50: 1340 mg/kg

CCCCCCC(C=O)=Cc1ccccc1
LD50: 3100 mg/kg

CC(S)C(=O)NCC(=O)O (stereo unspecified)
LD50: 1300 mg/kg

COc1ccc(C[C@H](C)NC[C@@H](O)c2ccc(O)c(NC=O)c2)cc1 (racemic)
LD50: 3130 mg/kg

CCCC(=O)N1CCCN(c2nc(N)c3cc(OC)c(OC)cc3n2)CC1
LD50: 980 mg/kg

NC(=O)c1ncn([C@@H]2O[C@H](CO)[C@@H](O)[C@H]2O)c1O
LD50: 2850 mg/kg

O=C(Cn1c(=O)sc2ccc(Cl)cc21)N1CCN(CCO)CC1
LD50: 3600 mg/kg and 2300 mg/kg

CC(C)=CCCC(C)=CC(=O)O
LD50: 3700 mg/kg

C=CCOc1ccc(CC(=O)O)cc1Cl
LD50: 1050 mg/kg
